A word on the % Inhibition: it is the drop in the measured response relative to a control, in per cent. Read a high % Inhibition as a strong effect.

Sequences of proteins named here, by UniProt entry; tags and fusion partners are left off. Residues count along the entry.
UniProt O42275, 24-633 limits assumed: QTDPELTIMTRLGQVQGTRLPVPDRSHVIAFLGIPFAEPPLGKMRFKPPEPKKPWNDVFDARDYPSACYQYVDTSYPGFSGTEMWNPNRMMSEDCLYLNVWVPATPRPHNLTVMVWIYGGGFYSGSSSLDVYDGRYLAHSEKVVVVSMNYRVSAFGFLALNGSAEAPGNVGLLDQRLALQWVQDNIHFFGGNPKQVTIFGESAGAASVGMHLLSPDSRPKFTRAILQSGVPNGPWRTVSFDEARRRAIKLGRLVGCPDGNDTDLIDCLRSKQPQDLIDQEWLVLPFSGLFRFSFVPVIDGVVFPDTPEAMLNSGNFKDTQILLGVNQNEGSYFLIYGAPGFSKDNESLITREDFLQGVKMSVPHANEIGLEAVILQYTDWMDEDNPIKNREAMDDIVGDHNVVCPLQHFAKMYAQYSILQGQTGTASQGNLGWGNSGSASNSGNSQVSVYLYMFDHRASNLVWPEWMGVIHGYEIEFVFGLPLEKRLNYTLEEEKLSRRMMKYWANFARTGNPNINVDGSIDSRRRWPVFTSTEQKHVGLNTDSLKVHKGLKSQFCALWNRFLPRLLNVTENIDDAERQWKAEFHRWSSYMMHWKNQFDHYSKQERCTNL

This is an account of results in US5714615A (priority 1994, dated 1998).

Only a part of the results on these compounds is given; other tests are left out.

The assay deals with electric eel AChE (Electrophorus electricus, UniProt O42275). Put plainly: Reversible (competitive) inhibition of electric eel AChE. The following applies: 0.32 mM inhibitor. The assay is classed as biochemical.

On to `CN(C)C(=O)Oc1ccc[n+](C)c1C=NNC(=O)Nc1c(Cl)cccc1Cl`, for which the “% Inhibition” value worked out at 49%.
